# Laboratory results published in patent publication US7531500B2, “Preventing airway mucus production by administration of EGF-R antagonists” (The Regents of the University of California, priority 1998, dated 2009).
# Experiments:
# [1] = tested on: NCI-H292 cells; test: Alcian blue/PAS staining of NCI-H292 cells for mucin glycoproteins; assay type: cell-based, human; conditions: TNFα 20 ng/ml; EGF, TGFα each 25 ng/ml
# Description: Cell culture. A human pulmonary mucoepidermoid carcinoma cell line, NCI-H292 cells, were grown in RPMI11640 medium containing 10% fetal bovine serum, penicillin (100 U/ml), streptomycin (100 μg/ml) at 37° C. in a humidified 5% CO2 water-jacketed incubator. When confluent, cells were incubated with EGF (recombinant human EGF, 25 ng/ml, Genzyme, Cambridge, Mass.), TGFα (recombinant human TGFα, 25 ng/ml, Qenzyme), TNFα (recombinant human TNFα, 20 ng/ml, Genzyme), EGF (25 ng/ml) plus TNFα (20 ng/ml) or TGFα (25 ng/ml) plus TNFα (20 ng/ml) for 12 h, 24 h or 48 h. In inhibition studies with an EGF-R tyrosine kinase inhibitor, BIBX1522 (10 μg/ml, generously provided by Boehringer Ingelheim Inc., Ingelheim, Germany), cells were pretreated with BIBX1522 30 min before adding growth factors. After incubation, cells grown in a T-75 flask were used for total RNA extraction or protein extraction, and 8-chamber slides were used for Alcian blue/PAS-staining to visualize mucins.
# [2] = tested on: NCI-H292 cells; test: Immunoassay of MUC5AC protein in NCI-H292 cells (Example 2); assay type: cell-based, human; conditions: 1 h incubation, protein at 24 h; IL-8 10^-8 M, fMLP 10^-8 M, TNFα 20 ng/ml
# Description: Cell Culture. NCI-H292 cells, a human pulmonary mucoepidermoid carcinoma cell line, were grown in RPMI 1640 medium containing 10% fetal bovine serum, penicillin (100 U/ml), streptomycin (100 μg/ml) and Hepes (25 mM) at 37° C. in a humidified 5% CO2, water-jacketed incubator. Either 6-well culture plates or 8-chamber slides were used to culture the cells. When confluent, cells were incubated for 1 h with neutrophils (10^6 cells/ml) alone, TNFα alone (recombinant human TNFα, 20 ng/ml, Genzyme, Cambridge, Mass.), IL-8 (recombinant human IL-8, 10^−8 M, Genzyme) alone, fMLP (10^−8 M, Sigma, St. Louis, Mo.) alone, TNFα plus neutrophils, IL-8 plus neutrophils, fMLP plus neutrophils, hydrogen peroxide (H2O2, 200 μM), cigarette smoke solution or TGFα (recombinant human TGFα, 0.1-25 ng/ml, Calbiochem, San Diego, Calif.). The cells were then washed and incubated with fresh medium alone. Experiments were terminated at preselected times (for mRNA, 6 h and 12 h; for protein, 24 h). As controls, cells were incubated with medium alone for same time periods. […]
# Immunoassay of MUC5AC Protein. MUC5AC protein was measured as described above. […] Absorbance was read at 450 nm.
substance,measurement,setting,value
TNFα: recombinant human tumor necrosis factor alpha (Genzyme),PAS-positive staining on incubation with mediator,[1],did not affect staining
same,"MUC5AC synthesis, stimulus alone without neutrophils",[2],"small, insignificant increase"
